## Measured affinities in a library of Ab-14 heavy chain variants

Target peptide (SARS-CoV-2 spike, HR2 region): PDVDLGDISGINAS

Each scFv is VH, a (GGGGS)3 linker, VL, as in the parent Ab-14, and differs from it in the CDRs of the heavy chain only.
VH: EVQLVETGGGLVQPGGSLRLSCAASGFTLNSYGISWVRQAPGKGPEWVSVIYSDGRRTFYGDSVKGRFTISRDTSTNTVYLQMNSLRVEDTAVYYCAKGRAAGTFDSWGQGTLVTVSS
VL: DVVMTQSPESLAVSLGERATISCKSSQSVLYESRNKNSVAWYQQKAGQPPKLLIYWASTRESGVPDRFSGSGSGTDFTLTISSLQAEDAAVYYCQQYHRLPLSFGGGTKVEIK

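The starting antibody came from a phage panning campaign against this peptide. This is the validation round: designs drawn from the data on random variants, tested in the same kind of assay. Group labels follow the data file (Ctrl: baseline library sampled from a position-specific scoring matrix, with some repeated check sequences; Rand: our label for a block that the file lists under HC and that is probably the random mutants of the ten best first-round binders; En: ensemble of fine-tuned language models; GP: Gaussian process model; GPLM: also part of the Gaussian process libraries; HC: hill climbing; Gen: genetic algorithm; Gibbs: Gibbs sampling; a sequence that several methods proposed may carry one label only). Affinity was read by AlphaSeq, a pooled yeast mating assay with surface-displayed partners. After mating in shaken culture at 30 °C for 16 h, diploids were selected and their barcode pairs sequenced. Each replicate has its own calibration line, from reference interactions of the BCL2 family. Mating was done six times.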

Each variant is given by its three heavy chain CDRs, as the data file delimits them; those of the parent are GFTLNSYGIS, VIYSDGRRTFYGDSVK, GRAAGTFDS. Values are apparent Kd, the geometric mean of the replicates that gave a signal; lower means stronger binding. A pair that was not seen in any replicate is written "no signal"; this usually means weak binding, but a binder can also be missed. The authors' rule: three or more of the six replicates give a measured affinity, fewer mean a poor binder. Values of this round are not directly comparable with the first-round values of the same sequences. Of ten entries with the parent sequence, four were seen in most replicates (averages 2.2 nM to 240 nM), three in one and three in none, so single entries are noisy. Background: pairings of all heavy chain designs with three empty control strains gave a value in 1% of cases (median 120 nM, 5th percentile 7.0 nM). Values in that range, when seen in few replicates, are hard to tell from nonspecific mating.

| # | CDR-H1 | CDR-H2 | CDR-H3 | group | apparent Kd | seen in |
|---|---|---|---|---|---|---|
| 1 | GFDIEEYGIS | VIYADGIRQAYKDSVK | GGNVGRFSV | En_Gibbs | no signal | 0 of 6 |
| 2 | GFDLNEYGIS | VIYADGMRTAYADDVK | GNQAGTFDM | En_Gen | 430 pM | 6 of 6 |
| 3 | GFTLNEYGIS | VIYSDGRRTFYGESVK | GRTAGTFDS | GPLM_Gen | 790 pM | 3 of 6 |
| 4 | GFDLNEYGIS | VIYADGVRTQYSNSVK | NGLRYQNKL | En_Gibbs | no signal | 0 of 6 |
| 5 | GFWLNEYGIS | VIYSDGRRTFYHDSVK | GRAAVTFDS | GP_HC | no signal | 0 of 6 |
| 6 | GFDLDKEGIS | VIYADGIRTAYQDSVK | GQNVATFNV | En_Gibbs | no signal | 0 of 6 |
| 7 | GFQLDEYGIS | VIYADGIRQYYAQKVK | GYNSTDMTV | En_Gibbs | no signal | 0 of 6 |
| 8 | GFSLNSYGIS | VIYSDGRRTFYGDQVK | GREAGTFDS | GP_Gen | 2.9 nM | 6 of 6 |
| 9 | GFNLNEYGIS | VIYADGRRTAYADSVK | GEVAGTFDV | En_HC | 1.3 nM | 6 of 6 |
| 10 | GFTLNSYGIS | VIYSDGRRTFYSDAVK | GKAAGTFDS | GP_Gibbs | 7.4 nM | 6 of 6 |
| 11 | GFDLNEYGIS | VIYADGSRTAYSDSVK | GNEAGTFDV | En_Gen | 730 pM | 6 of 6 |
| 12 | GFHLNDYGIS | VAYSDGRRTFYGDSVK | GRAAGTFRV | Ctrl | 2.5 nM | 4 of 6 |
| 13 | GFTLLSYGIS | VIYADGRRTFYGDNVK | GRAAGTFDS | Ctrl | no signal | 0 of 6 |
| 14 | GFDLNDYGIS | VIYADGRRTFYADSVK | GELAGTFDI | En_HC | 350 pM | 6 of 6 |
| 15 | GFTLNSYGIS | VIYSDGRRTFYNDKVK | GRAAGTFDS | Ctrl | 220 nM | 3 of 6 |
| 16 | GFTLNEYGIS | VIYSDGRRTFYTDSVK | GRAAGTFDL | GPLM_HC | 2.7 nM | 6 of 6 |
| 17 | GFDLNSYGIS | VIYSDGRRTFYDDDVK | GKAAGTFDS | GP_Gibbs | no signal | 0 of 6 |
| 18 | GFDLNEYGIS | VIYADGMRTAYANSVK | GNVAGTFDT | En_Gen | 1.6 nM | 6 of 6 |
| 19 | GFNLNSYGIS | VIYSDGRRTFYGDQVK | GEAAGTFDS | GP_Gen | 7.3 nM | 1 of 6 |
| 20 | GFDLNEYGIS | VIYADGSRTAYSKNFK | GEDGIVLLF | En_Gibbs | no signal | 0 of 6 |
| 21 | GFDLDEYGIS | VIYADGMRTAYADDVK | GEVAGTFDL | En_Gen | 600 pM | 6 of 6 |
| 22 | GFHLNSYGIS | VIYSDGRRTMYGDSVK | GRAAGTFDS | Ctrl | 190 nM | 5 of 6 |
| 23 | GFTIEDYGID | VIYSDGRRTFYGDSVK | GRAAGTFDD | Ctrl | no signal | 0 of 6 |
| 24 | GFDLNSYGIS | VIYSDGRRTFYGDKVK | GREAGTFDS | GP_Gen | 520 pM | 6 of 6 |
| 25 | GFKLDEQGIS | VIYADGRRVGYTDSVK | GTNGLDFTL | En_Gibbs | no signal | 0 of 6 |
| 26 | GFTLDSYGIS | VIYSDGRRTFYVDSVK | GRTAGTFDS | GPLM_Gen | 6.8 nM | 3 of 6 |
| 27 | GFPLNEYGIS | VIYSDGMRTFYTDSVK | GRFAGYVDS | Rand | no signal | 0 of 6 |
| 28 | GFDLDEYGIS | VIYADGMRTAYADSVK | GNTAGTFDL | En_Gen | 360 pM | 6 of 6 |
| 29 | GFELNSYGIS | VIYSDGRRTFYADSVK | GSTAGTFDS | GPLM_Gibbs | 1.1 nM | 6 of 6 |
| 30 | GFTLNSYGIS | VIYSDGRRTFYQDSVK | GRAAGTIDS | Ctrl | 30 nM | 3 of 6 |
| 31 | EFDLNNYGIS | VIYADGLRTAYETNFK | GINAGTFTS | En_Gibbs | 21 nM | 2 of 6 |
| 32 | MFSLNSYGIS | VIYSDGRRTFYADSVK | GNAAGTFDS | GPLM_Gen | 1.4 µM | 1 of 6 |
| 33 | GFTLNEYGIS | VIIFDGRRTFYDDSVK | GRFAGTFDS | Rand | no signal | 0 of 6 |
| 34 | KFSLNSYGIS | VIYSDGRHTFYGDSVK | GRAAGTFDS | Ctrl | 2.6 µM | 1 of 6 |
| 35 | GFDLNEYGIS | VIYADGMRTAYIDSVK | GNNAGTFDQ | En_Gen | 360 pM | 6 of 6 |
| 36 | GFDLNEYGVS | VIYADGMRSSYQDSVK | GSNVSLFDV | En_Gibbs | 140 nM | 1 of 6 |
| 37 | GFDIEKYGIS | VIYADGQRVAYDSSVK | GEEAGNFHV | En_Gibbs | no signal | 0 of 6 |

The remaining entries, values ahead:

| # | apparent Kd | seen in | CDR-H1 | CDR-H2 | CDR-H3 | group |
|---|---|---|---|---|---|---|
| 38 | no signal | 0 of 6 | GCTLDSYGIS | VIYSYGRRTFYGDSVK | GRAAGTALS | Rand |
| 39 | 11 nM | 6 of 6 | GFDLNEYGIS | VIYADGRRTFYADSVK | GEVAGTFVI | En_HC |
| 40 | 5.8 nM | 6 of 6 | GFALNEYGIS | VIYADGSRSAYINSVK | GVNNIDVNV | En_Gibbs |
| 41 | no signal | 0 of 6 | GFELNQYGIS | VIYSDGRRTFYSDSVK | GRAAVTFDS | GP_HC |
| 42 | 220 pM | 6 of 6 | GFDLNEYGIS | VIYADGRRTFYADDVK | GEVAGTFDV | En_HC |
| 43 | 1.0 nM | 6 of 6 | GFTLNEYGIS | VIYSDGRRTFYTDSVK | GRTAGTFDI | GP_HC |
| 44 | 3.1 nM | 6 of 6 | GFSLNNYGIS | VIYSDGRRTFYTDSVK | GRAAGTFDS | GPLM_Gen |
| 45 | 1.1 µM | 2 of 6 | GFTLNSYGIS | VIYSDGRRTFYSDSVK | GHAVGTFDS | GP_HC |
| 46 | no signal | 0 of 6 | GFHLNSYGIS | VIYSDGRRTFYGDSVK | GQEAGTFDS | GP_Gen |
| 47 | 2.3 nM | 6 of 6 | GFDLNSYGIS | VIYSDGRRTFYGDSVK | GVAAGTFDS | GPLM_Gibbs |
| 48 | 6.9 nM | 6 of 6 | GFTLNSYGIS | VIYSDGKRTFYGDSVK | GKTAGTFDS | GPLM_Gibbs |
| 49 | 6.5 nM | 1 of 6 | GFTLESYGIS | VIYSDGRRTFYIDSVK | GKAAGTFDS | GP_Gen |
| 50 | no signal | 0 of 6 | GYDIQDYGIS | VIYADGVRTVYHDSVK | GQLAGFFIT | En_Gibbs |
| 51 | no signal | 0 of 6 | GFTLESYGIS | VIYSDGRRTFYEDSVK | GRAAGTFDS | Ctrl |
| 52 | 26 nM | 3 of 6 | GFTLNDYGIS | VIYSDGRRTFYGDSVK | GRHAGTFDS | GPLM_Gen |
| 53 | 120 pM | 6 of 6 | GFDLNEYGIS | VIYADGVRTFYSDSVK | GETAGTFDV | En_HC |
| 54 | no signal | 0 of 6 | GYSLDDYGIS | VIYADGKRTSYAEDVK | GNNGGSFMN | En_Gibbs |
| 55 | 3.0 nM | 6 of 6 | GFDINSYGIS | VIYSDGRRQFYIDSVK | GRAAGTFDS | Ctrl |
| 56 | no signal | 0 of 6 | GFDLDEYGIS | VIYADGTRKYYADNVK | GDYHYVNST | En_Gibbs |
| 57 | 3.9 nM | 4 of 6 | GFDINEYGIS | VIYADGKRVEYNDKVK | GMLAGTFDQ | En_Gibbs |
| 58 | 1.4 nM | 6 of 6 | GFTLNEYGIS | VIYSDGRRTFYGDSVK | GRIAGTFDD | GP_HC |
| 59 | no signal | 0 of 6 | GFTLNQYGIS | VIYSDGRRTFYSDSVK | GRAAFFFDS | Rand |
| 60 | no signal | 0 of 6 | GFTLNEYGIS | VIYSDGRRTFYGDSVK | GRTAGTFTS | GPLM_Gen |
| 61 | 9.3 nM | 6 of 6 | GFTLNDYGIS | VIYSDGRRTFYGDSVK | GRAAGTFDM | Ctrl |
| 62 | 20 nM | 4 of 6 | GFNLNSYGIS | VIYADGRRTFYKDQVK | GRAAGTFDK | Ctrl |
| 63 | 14 nM | 5 of 6 | GFSLNSYGIS | VIYSDGRRTFYGDSVK | GRTAGTFDS | GPLM_Gen |
| 64 | 380 nM | 1 of 6 | GFTLNSHGIS | VIYSDGCRTFYGDSVK | GRAAGTFDS | Ctrl |
| 65 | 8.6 nM | 5 of 6 | GFTLNSYGIS | VIYSDGRRTFYGDSVK | GQNAGTFDT | GPLM_Gibbs |
| 66 | 30 nM | 5 of 6 | GFWLNDYGIS | VIYSDGRRTFYADSVK | GHAAGTFDE | GP_HC |
| 67 | 40 nM | 5 of 6 | GFHLNSYGIS | VIYSDGRRTFYKDSVK | GRTAGTFDS | GPLM_Gen |
| 68 | 1.8 nM | 6 of 6 | GFDLNEYGIS | VIYADGRRTAYADNVK | GETAGTFDV | En_Gen |
| 69 | no signal | 0 of 6 | GFSLNSYGIS | VIYSDGQRTGYNDSVK | GTAALTFDS | Ctrl |
| 70 | no signal | 0 of 6 | GFSLNEYGIS | VIYSDGRRTMYWDSVK | GRTAGTFDS | GP_Gibbs |
| 71 | 8.3 nM | 6 of 6 | GFSLDEYGIS | VIYADGVRQAYQDSVK | GQWHGTFDY | En_Gibbs |
| 72 | 800 pM | 6 of 6 | GFDLNEYGIS | VIYADGRRTAYADDVK | GNNAGTFDT | En_Gen |
| 73 | no signal | 0 of 6 | GFTLNEYGIS | VIYSDGRRTFYGDSVK | GRAAVTFIS | GPLM_HC |
| 74 | 180 pM | 6 of 6 | GFDLDEYGIS | VIYADGVRTAYADSVK | GETAGTFDT | En_Gen |

Data: MIT Lincoln Laboratory AlphaSeq set, Li et al. 2023, doi:10.1038/s41467-023-39022-2, as distributed in FLAb.